The record followed here is ChEMBL document CHEMBL6083287, “Development of Potent and Selective Inhibitors of Methylenetetrahydrofolate Dehydrogenase 2 for Targeting Acute Myeloid Leukemia: SAR, Structural Insights, and Biological Characterization” (J Med Chem, 2024).

For this assay, the system named is MOLM-14. Briefly: Synergistic antiproliferative activity against human MOLM-14 cells assessed as combination index incubated for 72 hrs in presence of alimta by MTT assay. Background: Formazan colour is commonly taken as a measure of viable cells.

The structures appear in SMILES notation.

Regarding `Nc1nc(N)c(NC(=O)Nc2ccc(C(=O)N[C@@H](CCc3nnn[nH]3)C(=O)O)cc2)c(=O)[nH]1`, the CI is 0.77 as printed.
